Reference: patent US6090780A, “Histidyl-proline diketopiperazine and method of use” (Chandon Prasad, priority 1999, dated 2000)

Assay: Serum CHP level (radioimmunoassay) after 7 days of CHP in drinking water
Type: in vivo, C57BL mice
Conditions: for AVERAGE SERUM LEVEL (mean ± SEM): 7 days, C57BL mice
Text: One way to increase brain CHP levels is through exogenous administration of CHP. […] Moreover, the measurement of CHP in serum has been obtained for mice and further supports the viability of exogenous CHP administration in humans. In these experiments, twenty adult male C57BL mice obtained from Jackson Laboratories were housed individually in light controlled rooms for a period of at least ten days after arrival with free access to Purina Chow and water. The lights were cycled on and off every twelve hour period. Each cage was fitted with 250 ml bottles having drip proof drinking spouts on both sides of a food bin containing Purina Chow. For the experiment, rats were divided into four groups of five mice each. Each group was treated with a different dosage of CHP dissolved in 250 milliliters of sterile water for a period of seven days. On the eighth day the mice were sacrificed and trunk blood was collected in glass test tubes. The blood was stored on ice and allowed to clot for 2 hours and centrifuged at 5° C. for 30 minutes at 2000 rpm. The serum was then collected and stored at -70° C. until processed for CHP radio-immunoassay. The radioimmunoassay involved incubating at 4-5° C. a mixture containing 0.1 ml of various dilutions of serum sample, 0.1 ml of 0.25% bovine serum albumin in phosphate buffered saline, 0.1 ml of rabbit CHP antibody and 0.1 ml of I^125 -CHP. After 48 hours incubation, free and antibody bound tracers were separated by adding 1 ml of 17.5% polyethylene glycol, MW 6000 containing bovine gamma-globulin (4 mg/ml) followed by centrifugation for 20 minutes. The supernatant was discarded and the pellet was counted for radioactivity.

Histidyl-proline diketopiperazine [CHP]
CHP serum levels after exogenous administration in water (ANOVA: F=52.51, p<0.0001): significantly increased | AVERAGE SERUM LEVEL (mean ± SEM) (CHP 1 μg/ml in each bottle): 1.14 ± 0.139 ng/mL | AVERAGE SERUM LEVEL (mean ± SEM) (CHP 5 μg/ml in each bottle): 1.96 ± 0.43 ng/mL | AVERAGE SERUM LEVEL (mean ± SEM) (CHP 10 μg/ml in each bottle): 3.46 ± 0.58 ng/mL
